Measured values reported in patent US20260007760A1, “CAMPTOTHECIN DERIVATIVES THAT BIND TO DDX5 PROTEIN AND PRODRUGS THEREOF” (priority 2022, published 2026).
Read-outs that look alike come from different tables or passages of the source.

Tested on: A549 cell line (overexpresses ABCG2)

Row | SMILES | Cell killing efficacy (IC50) | Cell killing efficacy (IC50) (A549 (overexpresses ABCG2), 3-day incubation)
1 | CC[C@@]1(O)C(=O)OCc2c1cc1n(c2=O)Cc2c-1nc1cc(F)c(C)c3c1c2[C@@H](NC(=O)CO)CC3 [Dxd, reference compound] | increased IC50 values | –
2 | CC[C@@]1(O)C(=O)OCc2c1cc1n(c2=O)Cc2c-1nc1cc3c(c4c1c2[C@@H](NC(=O)[C@@H](C)O)CC4)OCO3 [PBX-7016] | – | still maintain strong efficacy
